From patent publication US12168007B1, “Substituted piperazines as dopamine D3/D2 receptor modulators” (Richter Gedeon Nyrt, priority 2023, dated 2024)
Converted amounts (≈) assume the structure as drawn.

Key:
Format in all cases: physicochemical
Kinetic solubility study = conditions: PBS pH 7.4 with 1% DMSO, aqueous buffer, kinetic from dmso stock; PBS pH = 7.4, 2 hours, RT, 1% DMSO co-solvent; read-out: Kinetic sol.
Experimental: Following shaking of the suspension on an orbital shaker at 300 rpm for 2 hours, the suspension was clarified by vacuum filtration (Multiscreen® Vacuum Manifold; MilliporeSigma). Immediately following the filtration step, […] of the filtrate was transferred into […] of acetonitrile to avoid compound precipitation from the saturated solution. The concentration of the research compound was determined by HPLC-UV-(MS) detection, by using an external standard made from the same batch of research compound.

[1] = Thermodynamic solubility study (37° C., 4 hours); conditions: thermodynamic from solid, footnote ** 24 hours, read-out: Thermodynamic sol.
Experimental: Thermodynamic Solubility Study (37° C., 4 Hours)
The resulted mixtures/oversaturated solutions are shaken at 37° C. for 4 hrs (to the solution equilibrium) and are filtrated on a Millipore MultiSreen Filter Plate (0.45 μm). Concentrations of the filtrates are determined by LC/UV/MS based on a 5-point calibration. (When the solid material dissolved totally in the aqueous test medium the result should be considered as a minimal value.) Results are shown in Table 2.

[2] = Thermodynamic solubility study (RT, 24 hours); conditions: aqueous buffer, thermodynamic from solid, PBS pH = 7.4, 24 hours, read-out: Thermodynamic sol.
Experimental: Concentrations of the filtrates were determined by LC/UV/MS based on a 5-point calibration. (When the solid material dissolved totally in the aqueous test medium the result should be considered as a minimal value.) Results are shown in Table 2.

CNC(=O)N[C@H]1CC[C@H](CCN2CCN(c3cccc(Cl)c3Cl)CC2)CC1 [Ref. Ex. 3, N′-[(1r,4r)-4-{2-[4-(2,3-dichlorophenyl)piperazin-1-yl]ethyl}cyclohexyl]-N-methylurea, reference compound]
solubility kinetic at 2 h (Kinetic solubility study): 0.9 ± 0.1 µM (≈ 0.372 µg/mL) | solubility thermodynamic at 24 h ([1]; aqueous buffer, PBS pH = 7.4, 37° C. column): 0.3 ± 0.1 µM (≈ 0.124 µg/mL) | solubility thermodynamic at 24 h ([1]; fassgf or other biorelevant, SIF pH = 6.8, 37° C. column): 1.9 ± 0.2 µM (≈ 0.785 µg/mL) | solubility thermodynamic at 24 h [2]: 0.6 ± 0.1 µM (≈ 0.248 µg/mL)
